# Apparent affinities of Ab-91 variants for a coronavirus HR2 peptide

Reference: Engelhart et al. 2022, doi:10.1038/s41597-022-01779-4. File: FLAb, binding data.

Binding partner: SARS-CoV-2 spike HR2 peptide, sequence PDVDLGDISGINAS.

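The starting antibody came from a phage panning campaign against this peptide. The library (AAYL51) carries one to three amino acid substitutions per variant, with no insertions or deletions. The scFvs were displayed on barcoded MATa yeast, the peptide on MATalpha yeast. Binding brings cells together so that they mate, and sequencing counts the barcode pairs among the diploids. The ratio of observed to expected reads was calibrated, replicate by replicate, on BCL2-family standards whose Kd was known from biolayer interferometry. Each pool was mated in three replicate cultures.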

The variants keep the light chain, the linker and the frameworks of Ab-91 (scFv order VL, three GGGGS repeats, VH).
VL: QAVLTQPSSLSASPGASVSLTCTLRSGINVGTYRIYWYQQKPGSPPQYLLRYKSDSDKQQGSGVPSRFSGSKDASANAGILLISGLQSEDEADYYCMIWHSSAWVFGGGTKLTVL
VH: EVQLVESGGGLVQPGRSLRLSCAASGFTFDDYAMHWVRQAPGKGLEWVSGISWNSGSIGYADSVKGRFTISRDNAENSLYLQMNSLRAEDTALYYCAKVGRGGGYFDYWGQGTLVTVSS

The whole VH of each variant is written out. Every variant below is changed at F29 of the VH (sequential numbering). Each Kd is an estimate from the mating assay, the geometric mean of the replicates in which the pair was seen; lower is stronger. "nd" marks a missing value. The strain was present, yet no cells mated with the target were sequenced in any replicate, which points to weak or no binding. For reference, the parent read 72 nM as the reference entry and 7.5 nM as a member of this library. Empty control strains, which show no peptide, gave a signal in 21% of pairings with library AAYL51; the median was 34 µM and 95% of these signals were weaker than 1.8 µM. No background was subtracted. The control count says in how many pairings with the empty strains this scFv gave a signal.

For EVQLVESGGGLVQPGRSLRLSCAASGHTPNDYAMHWVRQAPGKGLEWVSGISWNSGSIGYADSVKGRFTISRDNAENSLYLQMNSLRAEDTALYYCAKVGRGGGYFDYWGQGTLVTVSS, the assay gave 22 µM (1 of 3 replicates; controls 3 of 9). Variant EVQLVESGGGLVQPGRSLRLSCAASPFTTDDYAMHWVRQAPGKGLEWVSGISWNSGSIGYADSVKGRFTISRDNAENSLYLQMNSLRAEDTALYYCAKHGRGGGYFDYWGQGTLVTVSS gave 2.2 µM (1 of 3 replicates; controls 1 of 9). Variant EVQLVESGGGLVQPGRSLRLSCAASHFTCDDYAMHWVRQAPGKGLEWVSGISWNSGSIGYAGSVKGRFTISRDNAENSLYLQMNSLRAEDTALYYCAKVGRGGGYFDYWGQGTLVTVSS gave nd (0 of 3 replicates; controls 0 of 9). Variant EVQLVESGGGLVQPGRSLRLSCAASGFTVDDYAMHWVRQAPGKGLEWVSGISWNSGSIGYADSVCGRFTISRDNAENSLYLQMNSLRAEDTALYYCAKVGRGGGYFDYWGQGTLVTVSS gave 20 µM (2 of 3 replicates; controls 5 of 9). For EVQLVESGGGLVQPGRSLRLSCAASGFTTDDYAMHWVRQAPGKGLEWVSGISQNSGSIGYADSVKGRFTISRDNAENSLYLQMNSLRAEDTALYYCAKVGRGGGYHDYWGQGTLVTVSS, the assay gave 1.2 µM (1 of 3 replicates; controls 0 of 9). With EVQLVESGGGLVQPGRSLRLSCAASGFTRGDYAMHWVRQAPGKGLEWVSGISWNSGSIGYADSVPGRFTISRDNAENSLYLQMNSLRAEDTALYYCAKVGRGGGYFDYWGQGTLVTVSS the result was 7.8 µM (1 of 3 replicates; controls 3 of 9).

Variant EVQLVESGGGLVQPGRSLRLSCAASGFWEDDYAMHWVRQAPGKGLEWVSGISWNSGSIGYADWVKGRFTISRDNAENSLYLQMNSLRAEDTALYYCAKVGRGGGYFDYWGQGTLVTVSS gave nd (0 of 3 replicates; controls 1 of 9). Variant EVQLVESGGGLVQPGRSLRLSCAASGFTSDDYAMHWVRQAPGKGLEWVSGISWNSGSIGYNDSVKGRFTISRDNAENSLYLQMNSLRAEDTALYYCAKVGRGGGYFDYWGQGTLVTVSS showed nd (0 of 3 replicates; controls 0 of 9). Variant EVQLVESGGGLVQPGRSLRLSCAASGFTVDDYAMHWVRQAPGKGLEWVSGISWNSPSIGYADSVKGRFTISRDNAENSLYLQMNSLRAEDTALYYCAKVGRGGGYHDYWGQGTLVTVSS showed 230 µM (3 of 3 replicates; controls 7 of 9). With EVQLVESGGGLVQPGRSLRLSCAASGFTIDDHAMHWVRQAPGKGLEWVSGISWNSGSIGYADSVKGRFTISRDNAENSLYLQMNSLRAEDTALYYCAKVGRGGGYFDYWGQGTLVTVSS the result was 190 nM (3 of 3 replicates; controls 3 of 9). With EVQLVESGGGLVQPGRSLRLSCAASGFTLDDYAMHWVRQAPGKGLEWVSGISWNSGSDGIADSVKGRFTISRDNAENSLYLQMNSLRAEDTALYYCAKVGRGGGYFDYWGQGTLVTVSS the result was nd (0 of 3 replicates; controls 0 of 9). For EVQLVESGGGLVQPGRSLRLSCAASGFTEDTYAMHWVRQAPGKGLEWVSGISWNSGSIGYADSVKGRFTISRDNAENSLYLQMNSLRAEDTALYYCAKVGRGGGYGDYWGQGTLVTVSS, the assay gave 84 µM (2 of 3 replicates; controls 3 of 9).

With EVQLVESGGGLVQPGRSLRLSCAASGFVMDDYAMHWVRQAPGKGLEWVSGISWNSGSIGYADSVKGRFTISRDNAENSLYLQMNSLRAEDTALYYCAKVGRGGGYFDYWGQGTLVTVSS the result was 190 nM (3 of 3 replicates; controls 4 of 9). Variant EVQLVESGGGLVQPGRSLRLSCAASYFTTDDYAMHWVRQAPGKGLEWVSGISWNSGSIGYADSVMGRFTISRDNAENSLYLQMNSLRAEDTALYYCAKVGRGGGYFDYWGQGTLVTVSS gave nd (0 of 3 replicates; controls 1 of 9). Variant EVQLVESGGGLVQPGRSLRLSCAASGFTDDDYAMHWVRQAPGKGLEWVSGISWNSGGIGYADSVKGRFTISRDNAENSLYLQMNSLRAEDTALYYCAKVGRGGGYFCYWGQGTLVTVSS gave 65 µM (2 of 3 replicates; controls 5 of 9). Variant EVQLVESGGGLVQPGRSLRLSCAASGFTADDYAMHWVRQAPGKGLEWVSQISWNSGSIGYADSVKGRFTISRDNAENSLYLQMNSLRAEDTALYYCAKVGRGGGYFDYWGQGTLVTVSS gave nd (0 of 3 replicates; controls 2 of 9). Variant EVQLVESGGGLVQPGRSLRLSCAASGFTHDDYRMHWVRQAPGKGLEWVSGISWNSGSIGYADSVKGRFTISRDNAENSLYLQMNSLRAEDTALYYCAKVGLGGGYFDYWGQGTLVTVSS gave 780 nM (3 of 3 replicates; controls 1 of 9). With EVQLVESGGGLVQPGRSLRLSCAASGFTTDDLAMHWVRQAPGKGLEWVSGISWNSGSIGYADSIKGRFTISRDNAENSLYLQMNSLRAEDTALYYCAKVGRGGGYFDYWGQGTLVTVSS the result was 21 µM (1 of 3 replicates; controls 0 of 9).

For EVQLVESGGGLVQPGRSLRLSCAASGFTDDDYANHWVRQAPGKGLEWVSGISWNSGSIGYADSVKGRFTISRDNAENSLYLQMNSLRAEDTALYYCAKVGRGGGYFDYWGQGTLVTVSS, the assay gave nd (0 of 3 replicates; controls 0 of 9).

Extract of 3 entries:

{"VH": "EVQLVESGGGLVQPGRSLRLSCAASGFWEDDYAMHWVRQAPGKGLEWVSGISWNSGSIGYADWVKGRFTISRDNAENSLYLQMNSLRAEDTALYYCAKVGRGGGYFDYWGQGTLVTVSS", "apparent Kd": "nd", "detected": "0 of 3", "signal with controls": "1 of 9"}
{"VH": "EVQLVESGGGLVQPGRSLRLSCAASHFTCDDYAMHWVRQAPGKGLEWVSGISWNSGSIGYAGSVKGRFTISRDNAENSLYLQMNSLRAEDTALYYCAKVGRGGGYFDYWGQGTLVTVSS", "apparent Kd": "nd", "detected": "0 of 3", "signal with controls": "0 of 9"}
{"VH": "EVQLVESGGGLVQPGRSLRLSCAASGFTHDDYRMHWVRQAPGKGLEWVSGISWNSGSIGYADSVKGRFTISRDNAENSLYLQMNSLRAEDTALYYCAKVGLGGGYFDYWGQGTLVTVSS", "apparent Kd": "780 nM", "detected": "3 of 3", "signal with controls": "1 of 9"}